PubChem BioAssay AID802 (Columbia University Molecular Screening Center, 2007)
The entries are a selection whose mix differs from that of the whole data set. Some results for these compounds are left out of this collection, so the calls shown say nothing about other tests. Calls of active or inactive are those of the source.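 How the source made its calls: active means inhibition above the batch mean plus 3 SD, with images confirmed as a hit by eye (cut at about 37% in these data); inconclusive means inhibition above that limit but hit not confirmed in images; inactive means inhibition not above that limit.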

experiment: blockers of endothelial VCAM-1 upregulation by TNFa – imaging, HUVEC, TNFa stimulus, immunofluorescence, primary screen (AID 802); conditions: HUVEC TNFa-induced VCAM-1 immunofluorescence, high-content imaging; at 2 µM; hits give high values;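 further: 0% = TNF-stimulated DMSO wells and 100% = unstimulated control wells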

SMILES | inhibition
CC(C)N1C(=O)CC2(CCN(CCOC(=O)C(O)(c3ccccc3)c3ccccc3)CC2)C1=O | inactive: -6.2%
CN(C)c1cccc(C(=O)NCC2(N(C)C)CCCCC2)c1 | inactive: 2.8%
O=C(OC1CN2CCC1CC2)C(CO)(c1ccccc1)c1ccccc1 (stereo not drawn) | inactive: -2.8%
